# Test results taken from article PMC5613062 (Investigational New Drugs, 2017).
# How the values were obtained:
# [1] = Pharmacokinetics alone and in combination, selumetinib + erlotinib arm
# [2] = Pharmacokinetics alone and in combination, selumetinib + temsirolimus arm; type: in vivo, human
smiles,measurement,setting,value
Cn1cnc2c(F)c(Nc3ccc(Br)cc3Cl)c(C(=O)NOCCO)cc21 [Selumetinib],PK parameters when administered alone and in combination,[1],similar
same,PK parameters when administered alone and in combination,[2],similar
